This passage reports β cleavage rate + σ^70 results from patent US20080193921.

In data set [1] the target is σ^70, the major σ initiation factor of Escherichia coli (wild-type) (UniProt P00579). Description: trypsin protection of the β flap-tip, 2-fold molar excess σ70, gel quantification; rate without σ70 printed as 9.2 ± 0.1.
The target is the same in data set [2]. Description: trypsin protection of the β flap-tip, 2-fold molar excess σ70, gel quantification; rate without σ70 printed as 12 ± 2*.

On to “wild-type Escherichia coli RNA polymerase (core enzyme, α, β, β′ subunits)”, for which the β cleavage rate + σ^70 in data set [1] was 0.0016 s⁻¹. Take “Escherichia coli RNA polymerase bearing the LQ901 substitution in the β subunit”: the β cleavage rate + σ^70 in data set [2] was determined as 0.01 s⁻¹.
